What was measured:
27 gastric cancer PDXs = assay: MCT of 27 gastric cancer PDXs treated with cetuximab, TGI and AUC ratio versus EGFR expression; assay type: in vivo, mouse; conditions: the 7 PDXs with high EGFR levels (FPKM around or larger than 20); exception GA2140
Description: The two starting tumor volumes, V0^(T) and V0^(C), need not to be the same. These two AUCs (area under curve) are illustrated in (FIG. 7A), and the AUC ratio equals kT/kc. If a study stops at different time for the two groups, dT for the drug group and dC for the vehicle group, we need to normalize the AUCs by dT^2 or dC^2. For convenience, we still call the normalized AUC as AUC, and the ratio between the two normalized AUCs as the AUC ratio:
For multiple mice in drug group (nT) and vehicle group (nC), AUCs in each group can be viewed as random samplings from corresponding normal distributions with sizeable standard deviations against the corresponding mean. The two normal distributions can differ in both mean and standard deviation. […]
We previously described a MCT study involving a cohort of 20 gastric PDXs where EGFR overexpression seems associated with positive response to cetuximab PDXs based on TGI type of response endpoint (Zhang L et al., Scientific Reports (2013) 3:2992). […] We calculated TGIs at day 14, and also AUC ratios using full set of data for all 27 PDXs. […] This analysis also supports that AUC is more robust tumor response readout over TGI in MCT and particularly for biomarker discovery. […]

[1] = test system: advanced gastric or esophagogastric junction adenocarcinoma; conditions: 7 patients with IHC score greater than ˜200 receiving cetuximab in addition to chemotherapies, cited from earlier work

In the case of cetuximab, the “PDXs with tumor volume reduction under treatment” value (27 gastric cancer PDXs) is listed as 6/7, the PFS ([1]; 19 patients on chemotherapies only: 4.1±3.2 months, p-value=0.03) is listed as 8.1±6.1 months and the OS ([1]; 19 patients on chemotherapies only: 10.1±7.8 months, p-value=0.02) is listed as 19.5±12.0 months.

From patent US20200260697A1, “METHODS OF MOUSE CLINICAL TRIAL” (CROWN BIOSCIENCE, INC. (TAICANG), priority 2016, published 2020)
